Source: PubChem BioAssay AID1952 (The Scripps Research Institute Molecular Screening Center, 2009)
The entries are a selection whose mix differs from that of the whole data set. The source made the active and inactive calls. Cut-off read from the data, not from the text of the source: active = inhibition above about 24%; inactive = the rest.

Amino acid sequences for entries named in this document (tags omitted).
UniProt P48145, whole entry: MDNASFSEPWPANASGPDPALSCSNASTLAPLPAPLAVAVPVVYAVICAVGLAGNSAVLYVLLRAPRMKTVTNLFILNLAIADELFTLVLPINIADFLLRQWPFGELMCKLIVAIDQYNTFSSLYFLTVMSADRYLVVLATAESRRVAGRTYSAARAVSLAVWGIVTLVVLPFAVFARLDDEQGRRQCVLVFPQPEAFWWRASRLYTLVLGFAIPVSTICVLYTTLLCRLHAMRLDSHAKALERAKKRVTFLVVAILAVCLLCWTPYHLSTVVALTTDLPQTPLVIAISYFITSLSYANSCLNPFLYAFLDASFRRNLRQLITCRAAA

The molecules below were run against Neuropeptides B/W receptor type 1 (Homo sapiens) (UniProt P48145) (assay: blockers of human NPBW1 receptor – cell-based, fluorescence, single concentration, confirmation (AID 1952;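 note: stimulated with the GPR7 agonist NPW; 0% = agonist plus vehicle and 100% = vehicle alone without agonist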)). Conditions: GPR7-expressing cells, calcium fluorescence antagonist mode; at 4.4 µM; hits give high values.

Compound	inhibition
CCCOc1ccc(NP(C)(=O)Oc2ccc(Cl)cc2)cc1 (configuration not stated)	inactive: 0.3%
O=C(O)c1cccc(Nc2c([N+](=O)[O-])cc([N+](=O)[O-])cc2[N+](=O)[O-])c1	inactive: -7.77%
